The text below walks through data of patent US20250127790A1, “COMBINATION THERAPY USING VPS34 INHIBITORS” (Deciphera Pharmaceuticals, LLC, priority 2021, published 2025).

The test relates to A-498 cells. As to the kind of experiment: Western blot, STAT1 phosphorylation in A-498 cells. The class given is cell-based, human. The settings on record: 5 ng/mL recombinant IFNβ, positive control. Here is the method:
A-498 cells were seeded at 1.5×10^5 cells/well in 6-well plates and cultured overnight. Cells were treated with 10 μg/mL mouse monoclonal antibody to human interferon α/β receptor chain 2 (α-IFNAR2) (clone: MMHAR-2, #21385-1, PBL Assay Science) or 10 μg/mL mouse IgG2a isotype control antibody (clone: eBM2a, #16-4724-81, Thermo Fisher Scientific). After 1 h, DMSO or 2 μM Compound 1 was added and cells were incubated for another 24 h. Treatment with 5 ng/mL recombinant IFNβ (#300-02BC, PeproTech) was used as a positive control. A-498 cells were washed in PBS and lysed in RIPA buffer (50 mM Tris HCl pH=7.4, 150 mM NaCl, 1% Triton X-100, 0.5% Na-deoxycholate, 0.1% SDS) containing protease inhibitor cocktail (#11836170001, Roche), and phosphatase inhibitor (#11836170001, Roche) for 10 min at 4° C. After centrifugation at 15000 rpm for 10 min at 4° C., the supernatant was obtained, and protein concentration was quantified using BCA assay (#23225, Thermo Fisher). Equal amounts were mixed with 0.1 M DTT and LDS Sample Buffer (#84788, Thermo Fisher), heated for 5 min at 90° C. before loading onto 4-12% Bis-Tris gels. Proteins were transferred to nitrocellulose membranes. […] Band intensities were quantified using Image Studio Lite software version 5.2.5 (LI-COR).

B1: IFNβ: recombinant IFNβ (#300-02BC, PeproTech) used as a positive control (protein, UniProt P01574 22-187, looked up)
Interferon beta: MSYNLLGFLQRSSNFQCQKLLWQLNGRLEYCLKDRMNFDIPEEIKQLQQFQKEDAALTIYEMLQNIFAIFRQDSSSTGWNETIVENLLANVYHQINHLKTVLEEKLEKEDFTRGKLMSSLHLKRYYGRILHYLKAKEYSHCAWTIVRVEILRNFYFINRLTGYLRN
With B1, the STAT1 phosphorylation result was “increased”.
